Ab-14 heavy chain CDR variants: yeast mating affinities

Source: Li et al. 2023 (doi:10.1038/s41467-023-39022-2), MIT Lincoln Laboratory and A-Alpha Bio; data file from the FLAb repository.

All variants were tested on one target, the spike HR2 peptide PDVDLGDISGINAS (SARS-CoV-2).

Each scFv is VH, three GGGGS repeats, VL, as in the parent Ab-14, and differs from it in the CDRs of the heavy chain only.
VH: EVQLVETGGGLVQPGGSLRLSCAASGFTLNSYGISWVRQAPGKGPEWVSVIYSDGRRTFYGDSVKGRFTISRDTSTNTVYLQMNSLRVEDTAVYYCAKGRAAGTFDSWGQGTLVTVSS
VL: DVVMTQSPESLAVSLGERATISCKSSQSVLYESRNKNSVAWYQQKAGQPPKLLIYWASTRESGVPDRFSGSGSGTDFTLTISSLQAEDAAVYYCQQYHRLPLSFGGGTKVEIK

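The parent was found by panning a naive human phage display library on the peptide. The variants were designed computationally from a first round of random CDR variants and then made and measured. Group labels follow the data file (Ctrl: baseline library sampled from a position-specific scoring matrix, with some repeated check sequences; Rand: our label for a block that the file lists under HC and that is probably the random mutants of the ten best first-round binders; En: ensemble of fine-tuned language models; GP: Gaussian process model; GPLM: also part of the Gaussian process libraries; HC: hill climbing; Gen: genetic algorithm; Gibbs: Gibbs sampling; a sequence that several methods proposed may carry one label only). In AlphaSeq, yeast of one mating type display the scFv and yeast of the other type display the target. The frequency of each diploid, read from paired DNA barcodes, reflects how well the two displayed proteins bind. Scores were corrected for input abundance and mapped to Kd with protein pairs of known affinity run in the same pool. There are six technical replicates.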

Sequences are complete VH domains.
The Kd shown is the geometric mean over detected replicates; a lower Kd is a better binder.
Where no diploid with the target was found in any replicate, the entry reads "no signal": below detection, most likely a poor binder, though not proof of it.
Entries are sorted by rising average, undetected variants last.

VH,group,Kd (apparent),seen in
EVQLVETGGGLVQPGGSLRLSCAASGFDLNEYGISWVRQAPGKGPEWVSVIYADGMRTAYIDSVKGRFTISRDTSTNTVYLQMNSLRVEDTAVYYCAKGNQAGTFDQWGQGTLVTVSS,En_HC,49 pM,6 of 6
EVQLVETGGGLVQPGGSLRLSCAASGFDLNEYGISWVRQAPGKGPEWVSVIYADGMRTYYADDVKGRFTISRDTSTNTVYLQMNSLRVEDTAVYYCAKGNVAGTFDIWGQGTLVTVSS,En_Gen,510 pM,6 of 6
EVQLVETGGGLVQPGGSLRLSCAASGFTLNEYGISWVRQAPGKGPEWVSVIYSDGRRTFYKDSVKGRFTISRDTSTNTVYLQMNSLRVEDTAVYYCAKGRNAGTFDSWGQGTLVTVSS,GPLM_HC,800 pM,6 of 6
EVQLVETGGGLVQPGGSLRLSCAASGFDLNEYGISWVRQAPGKGPEWVSVIYADGMRTAYSDSVKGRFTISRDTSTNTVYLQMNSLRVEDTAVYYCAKGDNAGTFDIWGQGTLVTVSS,En_Gen,860 pM,6 of 6
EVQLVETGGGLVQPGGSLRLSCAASGFTIEDYGISWVRQAPGKGPEWVSVIYSDGVRTFYGDSVKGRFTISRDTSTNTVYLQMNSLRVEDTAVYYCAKGRAAGTFDSWGQGTLVTVSS,Ctrl,1.3 nM,6 of 6
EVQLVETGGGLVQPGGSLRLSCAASGFDLNSYGISWVRQAPGKGPEWVSVIYSDGRRTFYSDSVKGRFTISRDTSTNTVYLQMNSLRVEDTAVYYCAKGQAAGTFDDWGQGTLVTVSS,GP_Gen,3.0 nM,6 of 6
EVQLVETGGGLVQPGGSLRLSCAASGFTLNDYGISWVRQAPGKGPEWVSVIYSDGRRTFYGDQVEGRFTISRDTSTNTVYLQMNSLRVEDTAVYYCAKGETAGTFDSWGQGTLVTVSS,Ctrl,3.7 nM,6 of 6
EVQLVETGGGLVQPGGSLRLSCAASGFDLNSYGISWVRQAPGKGPEWVSVIYSDGRRTFYSDSVKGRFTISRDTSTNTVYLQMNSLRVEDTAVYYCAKGRAAGSFDSWGQGTLVTVSS,GP_HC,6.3 nM,4 of 6
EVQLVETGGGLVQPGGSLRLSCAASGFTLNDYGISWVRQAPGKGPEWVSVIYSDGRRTWYQDSVKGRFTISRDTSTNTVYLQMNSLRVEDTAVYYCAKGRAAGTFDSWGQGTLVTVSS,GP_HC,9.0 nM,6 of 6

The remaining entries, values ahead:

Kd (apparent),seen in,VH,group
17 nM,1 of 6,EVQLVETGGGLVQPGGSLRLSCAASGFTLNSYGISWVRQAPGKGPEWVSVIYSDGMRTFYGDSVKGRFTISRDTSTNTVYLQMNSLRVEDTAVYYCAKGRAAGTFDSWGQGTLVTVSS,Ctrl
320 nM,3 of 6,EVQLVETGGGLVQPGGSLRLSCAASGFDLNEYGISWVRQAPGKGPEWVSVIYADGMRTFYADSVKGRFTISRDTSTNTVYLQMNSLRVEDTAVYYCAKGKNAGTFLMWGQGTLVTVSS,En_HC
no signal,0 of 6,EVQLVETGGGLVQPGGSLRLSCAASGFTLNSYGKSWVRQAPGKGPEWVSVIYSDGRRTFYGDSVKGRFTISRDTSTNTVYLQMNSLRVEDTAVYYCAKGGAAGTFDSWGQGTLVTVSS,Ctrl
no signal,0 of 6,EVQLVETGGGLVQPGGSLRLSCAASGFTLNDYGISWVRQAPGKGPEWVSVCYSDGRRTQYIDSVKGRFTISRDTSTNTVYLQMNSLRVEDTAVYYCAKGRAAGTFDSWGQGTLVTVSS,Rand
no signal,0 of 6,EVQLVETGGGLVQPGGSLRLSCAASGFDLQEYGISWVRQAPGKGPEWVSVIYADGKRTAYIQKVKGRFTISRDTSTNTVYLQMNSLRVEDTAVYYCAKGQIVGGQFDWGQGTLVTVSS,En_Gibbs
no signal,0 of 6,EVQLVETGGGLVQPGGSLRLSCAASGMSLMEYGISWVRQAPGKGPEWVSVIYADGRRTAYTDSFKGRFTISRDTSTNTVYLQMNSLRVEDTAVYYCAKGGSNKDTFVWGQGTLVTVSS,En_Gibbs
no signal,0 of 6,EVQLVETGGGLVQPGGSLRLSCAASGFTLNSYGISWVRQAPGKGPEWVSVIYSDGIRTFYGDSVKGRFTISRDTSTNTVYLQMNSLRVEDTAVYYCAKGAVIGTFDSWGQGTLVTVSS,Ctrl
no signal,0 of 6,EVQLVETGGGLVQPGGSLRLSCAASGFTLNSYGISWVRQAPGKGPEWVSVIYSDGRRTFYGDSVRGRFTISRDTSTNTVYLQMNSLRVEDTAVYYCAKGRAKITFDSWGQGTLVTVSS,Ctrl
no signal,0 of 6,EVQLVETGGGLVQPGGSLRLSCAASGFVLNDYGISWVRQAPGKGPEWVSVIYSDGRRTWYIDSVKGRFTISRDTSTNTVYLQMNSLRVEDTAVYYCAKGRAAGTFDSWGQGTLVTVSS,GP_HC

The first 3 variants above that were never detected:

VH,group,Kd (apparent),seen in
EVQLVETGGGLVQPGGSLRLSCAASGFTLNSYGKSWVRQAPGKGPEWVSVIYSDGRRTFYGDSVKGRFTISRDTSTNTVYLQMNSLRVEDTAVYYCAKGGAAGTFDSWGQGTLVTVSS,Ctrl,no signal,0 of 6
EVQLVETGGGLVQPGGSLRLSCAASGFTLNDYGISWVRQAPGKGPEWVSVCYSDGRRTQYIDSVKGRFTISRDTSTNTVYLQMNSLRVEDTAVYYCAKGRAAGTFDSWGQGTLVTVSS,Rand,no signal,0 of 6
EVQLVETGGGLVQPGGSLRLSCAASGFDLQEYGISWVRQAPGKGPEWVSVIYADGKRTAYIQKVKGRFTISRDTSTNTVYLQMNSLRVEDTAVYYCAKGQIVGGQFDWGQGTLVTVSS,En_Gibbs,no signal,0 of 6

A sequence measured in both rounds can read differently, since the two assays cover different ranges.
The parent sequence was in this pool as ten entries: three were never detected, three once, and four in most replicates, with averages from 2.2 nM to 240 nM.
Three control strains display no target. For all heavy chain designs, 1% of the pairings with them gave a signal, with a median of 120 nM and one signal in twenty below 7.0 nM, so weak values seen in few replicates may be background.
The authors averaged sequences with at least three values out of six and counted those with two or fewer as poor binders.